## Yeast mating assay 1: variants of the scFv Ab-14

Values reported by Engelhart et al. 2022, doi:10.1038/s41597-022-01779-4 (FLAb copy).

The target is the same throughout: PDVDLGDISGINAS, from the HR2 region of SARS-CoV-2 spike.

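The parent was found by panning a naive human phage display library on the peptide. The library (AAYL49) carries one to three amino acid substitutions per variant, with no insertions or deletions. In AlphaSeq, yeast of one mating type display the scFv and yeast of the other type display the target. After mating in shaken culture at 30 °C for 16 h, diploids were selected and their barcode pairs sequenced. Read counts were normalised to the haploid input and turned into Kd by a linear fit to BCL2-family pairs of known affinity, for each replicate. Each pool was mated in three replicate cultures.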

Parent: Ab-14, a human scFv built as VH, three GGGGS repeats, VL. Only the CDRs of the heavy chain vary.
VH: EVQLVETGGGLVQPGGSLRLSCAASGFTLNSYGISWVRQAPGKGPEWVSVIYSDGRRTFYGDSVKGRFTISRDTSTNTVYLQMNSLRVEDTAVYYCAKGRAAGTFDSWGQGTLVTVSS
VL: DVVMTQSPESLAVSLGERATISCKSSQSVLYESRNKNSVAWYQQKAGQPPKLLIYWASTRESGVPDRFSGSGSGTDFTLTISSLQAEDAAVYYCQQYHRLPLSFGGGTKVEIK

Substitutions are numbered in sequence along the VH above, starting at 1 (not Kabat).
This list gathers variants with a substitution at D106 (VH, numbered from residue 1).
Affinities are written as log10 Kd with Kd in nM; a lower number is a better binder.
The mean shown is taken over the replicates in which the pair was detected.
"nd" means that the variant was in the library but no mating with the target was seen in that replicate; the authors take this as a sign of poor binding, and no number exists.
Background: pairings of library AAYL49 with three empty control strains gave a value in 15% of cases (median 4.06, 5th percentile 2.83). Values in that range, when seen in few replicates, are hard to tell from nonspecific mating.
In this assay the parent's reference entry averaged 0.65; its copy inside this library read 4.11 (one replicate of three).

The variant Y60S F105I D106L gave 3.77, 4.99, 5.22 (mean 4.66). With S63Y D106W the result was nd, nd, nd. The variant S35P Y52P D106F gave nd, nd, nd. For K65Y R100N D106F, the assay gave nd, nd, 4.86. The variant G33R D106T gave nd, nd, nd. The variant A102T D106P gave nd, nd, nd. For T28V G61I D106Q, the assay gave 1.54, 1.36, 1.67 (mean 1.52).

The variant A102D T104D D106K showed nd, nd, nd. With S63H G99V D106L the result was nd, nd, nd. For F27E G61K D106I, the assay gave nd, nd, nd. The variant S31D G103L D106I gave -0.44, 0.13, -0.20 (mean -0.17). The variant Y52C F59R D106M gave nd, nd, 4.31. The variant N30W D106I S107R gave 1.70, 2.00, 1.73 (mean 1.81). The variant V64P A101I D106M showed nd, nd, nd.

With S63D D106K the result was 1.36, 1.48, 1.46 (mean 1.43). The variant L29W T58S D106W showed nd, nd, nd. The variant T58R G99M D106P gave 4.85, nd, nd. For S31C Y32V D106F, the assay gave 4.66, nd, 3.91 (mean 4.29). The variant D54I D106F S107R showed nd, nd, nd. With I51P R57T D106L the result was nd, nd, nd. The variant S31H G99H D106C gave nd, nd, nd.

The variant S35H F59L D106M gave 3.73, 5.02, nd (mean 4.37). For S53T R57H D106A, the assay gave nd, 4.22, nd. The variant D62P K65I D106L showed nd, 3.83, 4.30 (mean 4.06). The variant Y32T G103M D106M showed 5.61, 4.88, 4.38 (mean 4.96). The variant L29M D54Y D106H gave nd, nd, nd. The variant F59V G103N D106I gave nd, nd, 5.54. For D106R, the assay gave 2.75, nd, 3.33 (mean 3.04).

For G55H G61F D106K, the assay gave nd, nd, nd. The variant F105C D106P gave 1.35, 1.34, 1.38 (mean 1.36). For F59L V64M D106G, the assay gave nd, nd, 3.71.

The last 4 entries again:

With D106R the result was 2.75, nd, 3.33 (mean 3.04).
With G55H G61F D106K the result was nd, nd, nd.
With F105C D106P the result was 1.35, 1.34, 1.38 (mean 1.36).
With F59L V64M D106G the result was nd, nd, 3.71.